Measured values published in patent US20060287345A1, “Substituted 4-phenyl-4-[1h-imidazol-2-yl]-piperidine derivatives as selective non-peptide delta opiod agonists with antidepressant and anxiolytic activity” (priority 2003, published 2006).

Chains of the proteins cited; added tags and fusions are not shown. Lines headed by an entry give the natural chain unless they say otherwise; changes in a name come on top.
UniProt P41145: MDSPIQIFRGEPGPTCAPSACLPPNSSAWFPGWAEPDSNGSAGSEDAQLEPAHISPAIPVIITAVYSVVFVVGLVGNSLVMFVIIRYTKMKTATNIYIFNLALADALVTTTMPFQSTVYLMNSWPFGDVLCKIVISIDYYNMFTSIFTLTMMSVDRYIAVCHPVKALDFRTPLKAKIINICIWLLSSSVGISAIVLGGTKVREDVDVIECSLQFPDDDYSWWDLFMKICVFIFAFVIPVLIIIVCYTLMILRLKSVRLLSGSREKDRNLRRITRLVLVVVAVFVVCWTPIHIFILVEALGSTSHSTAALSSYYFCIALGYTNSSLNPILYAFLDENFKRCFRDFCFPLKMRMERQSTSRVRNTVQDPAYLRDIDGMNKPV

Assays:
[1] = target: T1, cloned human δ opioid receptor (Homo sapiens, UniProt P41143); experiment: Radioligand binding, competitive inhibition of [3H]DPDPE
T1 construct: expressed in transfected cells; host or cells: C6 glioma cells (permanently transfected)

δ opioid receptor [2] = target: T2, δ opioid receptor (Homo sapiens, UniProt P41143); experiment: cell-based
[3] = target: cloned human κ opioid receptor (Homo sapiens, UniProt P41145); experiment: biochemical
δ opioid receptor [4] = target: T2, δ opioid receptor; experiment: [35S]GTPγS binding, delta agonism; assay type: biochemical; parameters: expressed in transfected cells; host or cells: C6 glioma cells (permanently transfected)
δ opioid receptor [5] = target: T2, δ opioid receptor; experiment: Signal transport binding, delta antagonism; assay type: biochemical; parameters: expressed in transfected cells; host or cells: C6 glioma cells (permanently transfected)
[6] = Agonist receptor binding (pIC50) delta, Table 8, [3H]DPDPE 2 nM, C6 glioma cell membranes
[7] = pIC50 values for the delta opioid receptor agonist test, Table 7, delta opioid receptor

Structure (SMILES)	IC50 [1, 6] [nM]	IC50 [1, 7] [nM]	other results
CCOC(=O)N1CCC(c2ccccc2)(c2nccn2Cc2ccccc2)CC1 [Compound 1, ethyl 4-phenyl-4-[1-(phenylmethyl)-1H-imidazol-2-yl]-1-piperidinecarboxylate]	7.94	–	IC50 (δ opioid receptor [2]): 25.1 nM; IC50 [3]: 501 nM; IC50 (δ opioid receptor [4]): 79.4 nM; IC50 (δ opioid receptor [5]): > 10000 nM
O=C(c1ccccc1)N1CCC(c2ccccc2)(c2nccn2Cc2ccccc2)CC1 [Compound 2]	5.01	–	IC50 (δ opioid receptor [2]): 15.8 nM; IC50 (δ opioid receptor [4]): 158 nM; IC50 (δ opioid receptor [5]): > 10000 nM
CCOC(=O)N1CCC(c2ccccc2)(c2nccn2Cc2ccc(C(=O)OC)cc2)CC1 [Compound 3]	1.58	–	IC50 (δ opioid receptor [2]): 15.8 nM; IC50 (δ opioid receptor [4]): 50.1 nM; IC50 (δ opioid receptor [5]): > 10000 nM
CN(C(=O)N1CCC(c2ccccc2)(c2nccn2Cc2ccccc2)CC1)c1ccccc1 [Compound 9]	–	20	–
CCOC(=O)N1CCC(c2ccccc2)(c2nccn2Cc2ccc(O)cc2)CC1 [Compound 12, ethyl 4-phenyl-4-[1-(4-hydroxyphenylmethyl)-1H-imidazol-2-yl]-1-piperidinecarboxylate]	10	–	IC50 (δ opioid receptor [2]): 12.6 nM; IC50 (δ opioid receptor [4]): 100 nM; IC50 (δ opioid receptor [5]): > 10000 nM
COC(=O)N1CCC(c2ccccc2)(c2nccn2Cc2ccccc2)CC1 [Compound 13]	–	39.8	–
CCOC(=O)N1CCC(c2ccccc2)(c2nccn2Cc2ccc(OC)cc2)CC1 [Compound 15]	–	25.1	–
CCOC(=O)N1CCC(c2ccccc2)(c2nccn2Cc2cccc(F)c2)CC1 [Compound 17]	–	12.6	–
CCOC(=O)N1CCC(c2ccccc2)(c2nccn2Cc2cccc(OC)c2)CC1 [Compound 18]	–	63.1	–
CCOC(=O)N1CCC(c2ccccc2)(c2nccn2C(C)c2ccccc2)CC1 (stereo not shown) [Compound 20]	2.51	–	IC50 (δ opioid receptor [2]): 31.6 nM; IC50 (δ opioid receptor [4]): 100 nM; IC50 (δ opioid receptor [5]): > 10000 nM
CCCOC(=O)N1CCC(c2ccccc2)(c2nccn2Cc2ccccc2)CC1 [Compound 24]	6.31	–	IC50 (δ opioid receptor [2]): 6.31 nM; IC50 (δ opioid receptor [4]): 126 nM; IC50 (δ opioid receptor [5]): > 10000 nM
CC(C)OC(=O)N1CCC(c2ccccc2)(c2nccn2Cc2ccccc2)CC1 [Compound 25]	3.98	–	IC50 (δ opioid receptor [2]): 10 nM; IC50 (δ opioid receptor [4]): 126 nM; IC50 (δ opioid receptor [5]): > 10000 nM
CC(C)(C)OC(=O)N1CCC(c2ccccc2)(c2nccn2Cc2ccccc2)CC1 [Compound 26]	–	20	–
CCCCOC(=O)N1CCC(c2ccccc2)(c2nccn2Cc2ccccc2)CC1 [Compound 27]	–	20	–
COCC(=O)N1CCC(c2ccccc2)(c2nccn2Cc2ccccc2)CC1 [Compound 29]	–	15.8	–
COCC(=O)N1CCC(c2ccccc2)(c2nccn2C(C)c2ccccc2)CC1 (stereo not shown) [Compound 31]	7.94	–	IC50 (δ opioid receptor [2]): 7.94 nM

Structure (SMILES)	IC50 [1, 6] [nM]	IC50 [1, 7] [nM]	other results
O=C(OCc1ccccc1)N1CCC(c2ccccc2)(c2nccn2Cc2ccccc2)CC1 [Compound 32]	–	25.1	–
CC(=O)N1CCC(c2ccccc2)(c2nccn2Cc2ccccc2)CC1 [Compound 33]	–	79.4	–
CCC(=O)N1CCC(c2ccccc2)(c2nccn2Cc2ccccc2)CC1 [Compound 34]	–	63.1	–
CC(C)(C)C(=O)N1CCC(c2ccccc2)(c2nccn2Cc2ccccc2)CC1 [Compound 37]	–	79.4	–
COC(=O)c1ccc(Cn2ccnc2C2(c3ccccc3)CCN(C(=O)c3ccccc3)CC2)cc1 [Compound 38]	2	–	IC50 (δ opioid receptor [2]): 5.01 nM
CC(c1ccccc1)n1ccnc1C1(c2ccccc2)CCN(C(=O)c2ccccc2)CC1 (stereo not shown) [Compound 41]	5.01	–	–
O=C(Cc1ccccc1)N1CCC(c2ccccc2)(c2nccn2Cc2ccccc2)CC1 [Compound 45]	–	50.1	–
CCNC(=O)N1CCC(c2ccccc2)(c2nccn2Cc2ccccc2)CC1 [Compound 47]	–	79.4	–
CC(c1ccccc1)n1ccnc1C1(c2ccccc2)CCN(C(=O)Nc2ccccc2)CC1 (stereo not shown) [Compound 55]	–	50.1	–
O=C(Nc1ccccc1)N1CCC(c2ccccc2)(c2nccn2Cc2ccccc2F)CC1 [Compound 56]	–	79.4	–
O=C(Nc1ccccc1F)N1CCC(c2ccccc2)(c2nccn2Cc2ccccc2)CC1 [Compound 64]	–	63.1	–
COc1ccccc1NC(=O)N1CCC(c2ccccc2)(c2nccn2Cc2ccccc2)CC1 [Compound 67]	–	15.8	–
COc1cccc(NC(=O)N2CCC(c3ccccc3)(c3nccn3Cc3ccccc3)CC2)c1 [Compound 69]	–	25.1	–
O=C(Nc1cccc(F)c1)N1CCC(c2ccccc2)(c2nccn2Cc2ccccc2)CC1 [Compound 72]	–	63.1	–
O=S(=O)(Nc1ccccc1)N1CCC(c2ccccc2)(c2nccn2Cc2ccccc2)CC1 [Compound 98]	–	–	IC50 [3]: 1580 nM
